{
  "source": "patent US20020192754A1",
  "about": "“Method for producing active serine proteases and inactive variants” (MAX-PLANCK-GESELLSCHAFT E.V., priority 1999, published 2002)",
  "key": {"human GzmK [1]": {"target": "T1, human GzmK (Homo sapiens, UniProt P49863)", "T1 construct": "Met-Glu N-terminal helper dipeptide (pro-dipeptide) (N, cleaved yes); made in house", "T1 sequence (P49863 27-264)": "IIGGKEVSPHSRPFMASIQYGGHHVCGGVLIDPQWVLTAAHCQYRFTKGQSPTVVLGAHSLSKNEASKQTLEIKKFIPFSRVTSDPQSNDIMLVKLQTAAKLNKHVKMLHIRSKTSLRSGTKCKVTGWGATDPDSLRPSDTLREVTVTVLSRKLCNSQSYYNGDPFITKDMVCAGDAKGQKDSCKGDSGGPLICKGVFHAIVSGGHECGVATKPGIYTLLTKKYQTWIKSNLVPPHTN", "assay": "Inhibition of human GzmK by various inhibitors (residual activity, this study)", "format": "biochemical", "conditions": "inhibitor 2.0 mM, I:E 670 x 10^3; 3 nM human GzmK; 60-minute preincubation at RT", "description": "These activity tests were performed in wells of a 96-cup tray with respectively 150 μl of the sample volume.\nThe thiobenzylester substrates and Ellman's reagency were diluted to end concentrations of 0.3 mM in the test buffer (150 mM Tris, 50 mM NaCl, 0.01% Triton X-100, pH 7.6). The various granzyme preparations were likewise diluted to 3-15 nM in the test buffer. The color change occurring with the conversion of the substrates was measured at 405 nm and room temperature over 5 minutes in the ELISA reader. The difference in absorptions at the beginning and after 5 minutes as it relates to time was used to calculate the conversion rate.\nAfter a 60-minute preincubation at RT the residual activity was ascertained in triple batches. Initial activities were determined in buffers containing the same proportion of organic solvents. […] Molar concentrations of active aprotinine were ascertained with the use of activity-titrated bovine trypsin."}, "human GzmK [2]": {"target": "T1, human GzmK", "conditions": "table row: inhibitor 2.0 mM; cited from earlier work"}},
  "data": [
    {"smiles": "O=S(=O)(F)Cc1ccccc1", "note": "[PMSF, phenylmethylsulfonyl fluoride]", "values": [
      {"measurement": "Residual Activity (%) This study", "setting": "human GzmK [1]", "value": 0.0, "unit": "%"},
      {"measurement": "Residual Activity (%) Babé et al., Bio. Appl. Bioch. 27:117-124 (1998)", "setting": "human GzmK [2]", "value": 0, "unit": "%"}
    ]}
  ]
}
